Molecular target: T1, human SGLT2 (Homo sapiens, UniProt P31639)
T1 construct: expressed in transfected cells
T1 sequence (P31639 1-672): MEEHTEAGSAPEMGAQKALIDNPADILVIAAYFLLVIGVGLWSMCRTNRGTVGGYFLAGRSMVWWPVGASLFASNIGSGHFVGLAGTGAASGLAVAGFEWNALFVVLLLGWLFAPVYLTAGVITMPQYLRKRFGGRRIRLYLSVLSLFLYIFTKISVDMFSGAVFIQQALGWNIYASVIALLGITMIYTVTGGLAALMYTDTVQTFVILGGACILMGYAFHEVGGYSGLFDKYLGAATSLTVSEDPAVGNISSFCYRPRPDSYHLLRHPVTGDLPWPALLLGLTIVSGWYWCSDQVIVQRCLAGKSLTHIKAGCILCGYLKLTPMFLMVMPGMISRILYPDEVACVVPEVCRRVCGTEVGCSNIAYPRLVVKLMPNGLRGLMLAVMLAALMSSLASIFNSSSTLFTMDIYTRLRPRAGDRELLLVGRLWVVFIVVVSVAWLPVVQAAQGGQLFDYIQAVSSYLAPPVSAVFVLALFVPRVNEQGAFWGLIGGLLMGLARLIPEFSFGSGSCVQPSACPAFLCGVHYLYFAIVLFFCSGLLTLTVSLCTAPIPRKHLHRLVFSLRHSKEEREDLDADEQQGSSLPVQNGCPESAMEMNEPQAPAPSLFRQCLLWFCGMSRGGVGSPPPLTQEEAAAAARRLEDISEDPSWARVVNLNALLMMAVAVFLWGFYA
Assay: Cell-based assay for sodium-dependent glucose transport (14C-AMG uptake), CHOK-SGLT2
Conditions: CHO-K1 cells stably expressing human SGLT2; Na-dependent 14C-AMG uptake; read-out: CHOK-SGLT2 IC50 (uM) ± SEM
Protocol: Cloning of the human SGLT1 and human SGLT2 cDNAs and construction of the mammalian expression vector: The human SGLT1 cDNA (Genbank M24847) was cloned from human small intestine. Human SGLT2 cDNA (Genbank M95549) was cloned from human kidney. Both full cDNAs were subcloned into pcDNA and sequenced to verify the integrity of the construct. Generation of CHO-K1 cells stably expressing human SGLT1 or human SGLT2: Transfection of CHO-K1 cells was performed using DMRIE-C reagent (Life Technologies, Gaithersburg, Md.). Transfectants were then selected in the presence of the antibiotic G418 (Gibco-BRL, Grand Island, N.Y.) at 400 μg/ml. Individual clones were then characterized using the functional assay described below. Cell-based assay for sodium-dependent glucose transport: Cell lines stably expressing human SGLT1 or SGLT2 were then used for functional analysis of Na^+-dependent glucose uptake. Briefly, cells were plated at a density of 65,000 cells per well in a 96-well plate and allowed to grow for 48 hours. […] After aspiration, cells were solubilized using Microscint 20 (Packard, Meriden, Conn.) and Na-dependent ^14C-AMG uptake was quantified by measuring radioactivity. Plates were counted in a TopCount (Packard, Meriden, Conn.). […]

For `Cc1cc(O[C@@H]2OC(CO)[C@@H](O)[C@H](O)[C@H]2O)c2c(CCc3ccc4occc4c3)n[nH]c2c1` (stereo partly drawn) [Example 13, 2-[3-(2-Benzofuran-5-yl-ethyl)-6-methyl-1H-indazol-4-yloxy]-β-D-glucopyranoside], the IC50 was 0.491 ± 0.056 µM.

Reference: patent US7816331B2, “Substituted indazole-O-glucosides” (Janssen Pharmaceutica NV, priority 2003, dated 2010)
